In patent US20060247231A1, “Amide and ester matrix metalloproteinase inhibitors” (Warner-Lambert Company LLC, priority 2003, published 2006):

Molecular target: MMP-13 catalytic domain (MMP-13CD) (Homo sapiens, UniProt P45452)
Assay: MMP-13 catalytic domain inhibition (Biological Methods 1, 2, or 5)
Conditions: read-out: MMP-13CD IC50
Protocol: Thiopeptolide substrates show virtually no decomposition or hydrolysis at or below neutral pH in the absence of a matrix metalloproteinase enzyme. A typical thiopeptolide substrate commonly utilized for assays is Ac-Pro-Leu-Gly-thioester-Leu-Leu-Gly-OEt. A 100 μL assay mixture will contain a suitable amount of the MMP enzyme such as an amount described in Ye Qi-Zhuang, et al., 1996, supra, 50 mM of N-2-hydroxyethylpiperazine-N′-2-ethanesulfonic acid buffer (“HEPES,” pH 7.0), 10 mM CaCl2, 100 μM thiopeptolide substrate, and 1 mM 5,5′-dithio-bis-(2-nitro-benzoic acid) (DTNB). The thiopeptolide substrate concentration may be varied, for example from 10 to 800 μM to obtain Km and Kcat values. The change in absorbance at 405 nm is monitored on a Thermo Max microplate reader (molecular Devices, Menlo Park, Calif.) at room temperature (22° C.). The calculation of the amount of hydrolysis of the thiopeptolide substrate is based on E412=13600 M^−1 cm^−1 for the DTNB-derived product 3-carboxy-4-nitrothiophenoxide. […]
Some representative compounds of Formula I have been evaluated according to Biological Method 1 for their ability to inhibit MMP-13 and other MMP enzymes, including MMP-1, MMP-2, MMP-3, MMP-7, MMP-8, MMP-9, MMP-12, MMP14, and MMP-17. […]

- IC50: 35 nM
Compound: COc1ccc(CC(=O)Nc2ccc3ncn(Cc4ccc(C(=O)O)cc4)c(=O)c3c2)cc1
